This is a sample that favours compounds with a hit; in the whole collection about 0.46% have one here.
GIV Gai3 FP: blocks GIV peptide binding to rat Galpha-i3. P08753. Galpha-i3/FITC-GIV peptide fluorescence polarization, 90 min; stronger effect = lower value; scaled: aluminum fluoride 0%, vehicle 100%. percent of control (FP), % (test concentration not listed). 0.42% of 210,000 active. AID 1224905;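 active = replicate mean at 85% of control or lower, very high polarization wells dropped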;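 also: wells of about 15 µL received 100 nL stock; the first replicate is given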
HCMV UL50-53 inh: inhibitors of HCMV UL50-UL53 nuclear egress complex interaction; HTRF UL50-UL53 interaction, normalized percent inhibition; inhibition, % (concentration not given with the values); 190,000 compounds, 0.15% hits; AID 1918969; in the data active = inhibition above about 27%, passing the limit was not always enough
GIV-Gai FP conf: GIV-Galpha-i3 inhibition, FP confirmation. shares compounds with GIV Gai3 FP. FITC-GIV peptide binding to Galphai3, fluorescence polarization; active compounds read low. fluorescence polarization, mP at 100 µM. 580 compounds, 38% hits;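 active = inhibition score of 15 or more, meaning 100 minus mean polarization as percent of control over three replicates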;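 note: lower mP means peptide displaced from Galphai3 so more inhibition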
GIV Gai AS conf: confirmation of inhibitors of GIV binding to human Galpha-i3; shares compounds with GIV Gai3 FP; AlphaScreen Galphai3-GIV binding, purified proteins, 90 min; active compounds read low; AlphaScreen counts at 100 µM; 580 compounds, 39% hits;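 active = inhibition score at or above a set limit, where the score is 100 minus the three-replicate mean percent of control signal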
The depositor's hits bear a star; · = no result; ! = not active in a repeat.

nr | molecule | GIV Gai3 FP | HCMV UL50-53 inh | GIV-Gai FP conf | GIV Gai AS conf
1 | O=C(NC1CC1)c1ccc(OCC2CCCO2)cc1 (centres undefined) | · | -2.2 | · | ·
2 | CC1=C(C(=O)OC2CCCCC2)C(c2coc3ccc(Cl)cc3c2=O)C2=C(CCCC2=O)N1 (centres undefined) | 105.4 | -19.9 | · | ·
3 | CC1=C(C(=O)OC2CCCCC2)C(c2coc3ccc(Cl)cc3c2=O)C2=C(CC(C)(C)CC2=O)N1 (centres undefined) | 92.3 | -10.2 | 62.7 | 54497
4 | Cc1ccc(N2NC(C)(CC(C)C)NC2=S)cc1 (centres undefined) | 112.9 | · | · | ·
5 | COc1cc(C2NC(=O)NC(C)=C2C(=O)NCc2ccccc2)ccc1OCC(N)=O (centres undefined) | · | -13.6 | · | ·
6 | Cc1ccc(C(=O)Nc2ccc(S(=O)(=O)O)c3cc(S(=O)(=O)O)cc(S(=O)(=O)O)c23)cc1NC(=O)c1cccc(NC(=O)Nc2cccc(C(=O)Nc3cc(C(=O)Nc4ccc(S(=O)(=O)O)c5cc(S(=O)(=O)O)cc(S(=O)(=O)O)c45)ccc3C)c2)c1 | 76.2*! | -50.1 | 61.2* | 12181*
7 | Cc1ccc(C)c(NC(=O)c2cccc(S(=O)(=O)N3CCCC3)c2)c1 | · | 9.5 | · | ·
8 | CCOc1ccc(NC(=O)N(C)CCc2noc(-c3ccc(Cl)cc3)n2)cc1 | 107.9 | 1.0 | · | ·

Filtered by structure, the compounds so far containing a halogen (3)
nr | molecule | GIV Gai3 FP | HCMV UL50-53 inh | GIV-Gai FP conf | GIV Gai AS conf
2 | CC1=C(C(=O)OC2CCCCC2)C(c2coc3ccc(Cl)cc3c2=O)C2=C(CCCC2=O)N1 (centres undefined) | 105.4 | -19.9 | · | ·
3 | CC1=C(C(=O)OC2CCCCC2)C(c2coc3ccc(Cl)cc3c2=O)C2=C(CC(C)(C)CC2=O)N1 (centres undefined) | 92.3 | -10.2 | 62.7 | 54497
8 | CCOc1ccc(NC(=O)N(C)CCc2noc(-c3ccc(Cl)cc3)n2)cc1 | 107.9 | 1.0 | · | ·

The listing continues.
nr | molecule | GIV Gai3 FP | HCMV UL50-53 inh | GIV-Gai FP conf | GIV Gai AS conf
9 | O=C(Cn1c(=O)c2ccccc2n2c(=S)sc(-c3ccccc3)c12)NCC1CCCO1 (centres undefined) | 77.8* | -16.0 | 71.5 | 23082
10 | O=C(Cn1c(=O)c2ccccc2n2c(=S)sc(-c3ccc(Br)cc3)c12)N1CCCC1 | 94.4 | -18.7 | · | ·
11 | CCN(CC)C(=O)Cn1c(=O)c2ccccc2n2c(=S)sc(-c3ccccc3F)c12 | 121.5 | -41.4 | · | ·
12 | CCN(CC)C(=O)Cn1c(=O)c2ccccc2n2c(=S)sc(-c3ccc(Br)cc3)c12 | 100.2 | -28.8 | 93.7 | 27284
13 | CC(C(=O)NCc1cccs1)N1C(=O)C2CCCCN2C(=O)c2ccccc21 (centres undefined) | 100.1 | · | · | ·
14 | Cc1ccc(C2=NS(=O)(=O)N(C)C(C(=O)Nc3ccc(F)cc3F)=C2)cc1 | 105.9 | -33.6 | · | ·
15 | COc1ccc(OC)c(C2=NS(=O)(=O)N(C)C(C(=O)Nc3ccc(F)cc3F)=C2)c1 | 94.5 | -21.4 | 80.4 | 32539
16 | CCOC(=O)N1CCN(C(=S)Nc2ccc3nsnc3c2)CC1 | 77.2* | -76.5 | 60.6* | 21787
17 | CCOC(=O)N1CCN(C(=S)Nc2ccc(C)c(C)c2)CC1 | · | -14.2 | · | ·
18 | Cn1c(N2CCC(C(=O)O)CC2)nc2ccccc21 | 104.6 | -5.8 | · | ·
19 | O=C1NC(=O)C(=Cc2cc(Br)ccc2OCc2ccc(Cl)cc2)C(=O)N1 | 78.5* | 50.3* | 62.4 | 39620
20 | Cc1ccc(COc2ccc(Br)cc2C=C2C(=O)NC(=S)NC2=O)cc1 | 100.4 | 8.5 | · | ·
21 | Cc1cc2ccccc2n1CC(=O)Nc1cccc(C(=O)NC2CC2)c1 | · | -6.6 | · | ·
22 | Nc1cccc2c1C(=O)N(CC(=O)NC13CC4CC(CC(C4)C1)C3)C2=O | · | -16.8 | · | ·
23 | Nc1cccc2c1C(=O)N(CC(=O)O)C2=O | 80.9* | -41.4 | 72.1 | 47777
24 | C=CCN(CC)C(=O)C1C(=O)CC(C)(C)CC1=O | 104.2 | -20.0 | · | ·

Three compounds already listed, sorted by number of heavy atoms, smallest number first.
nr | molecule | GIV Gai3 FP | HCMV UL50-53 inh | GIV-Gai FP conf | GIV Gai AS conf
4 | Cc1ccc(N2NC(C)(CC(C)C)NC2=S)cc1 (centres undefined) | 112.9 | · | · | ·
1 | O=C(NC1CC1)c1ccc(OCC2CCCO2)cc1 (centres undefined) | · | -2.2 | · | ·
11 | CCN(CC)C(=O)Cn1c(=O)c2ccccc2n2c(=S)sc(-c3ccccc3F)c12 | 121.5 | -41.4 | · | ·

Next part
nr | molecule | GIV Gai3 FP | HCMV UL50-53 inh | GIV-Gai FP conf | GIV Gai AS conf
25 | Cc1c2c(=O)n(-c3ccccc3)[nH]c2cc(=O)n1Cc1ccccc1 | 104.1 | -5.5 | · | ·
26 | CCCC1C2CN(C(C)C)CC=C2C(C#N)=C(N)C1(C#N)C#N (centres undefined) | 78.7* | -62.0 | 65.6 | 23056
27 | CCOC(=O)N1CC=C2C(C#N)=C(N)C(C#N)(C#N)C(CC)C2C1 (centres undefined) | 126.3 | -33.1 | · | ·
28 | CC(=O)ON1C(c2ccccc2)[N+]([O-])=C(c2ccccc2)C1(C)C (centres undefined) | 105.0 | -18.0 | · | ·
29 | COc1ccc(NC(=S)Nc2ccc(N3CCOCC3)c3nonc23)cc1OC | 72.0* | -63.2 | 55.6* | 23631*
30 | O=C(Nc1ccc(N2CCOCC2)c2nonc12)c1cccs1 | 109.6 | 4.5 | · | ·
31 | CCN(CC)C(=O)Cn1cnc2sc(C(=O)Nc3ccc(Oc4ccccc4)cc3)c(C)c2c1=O | 120.0 | · | · | ·
32 | O=C(c1sc2ccccc2c1Cl)N1CCc2ccccc21 | · | 5.4 | · | ·
33 | Nc1c(C(=O)N2CCc3ccccc32)sc2nc(C(F)(F)F)c3c(c12)CCCC3 | 94.6 | · | 74.6 | 39316
34 | Cc1ccc2c(c1)c1c3n2C=CNC3CCC1 (centres undefined) | 82.1* | -75.0 | 52.3* | 25813*
35 | Cc1ccc2c(c1)c1c3n2CCCNC3CCC1 (centres undefined) | 101.7 | -11.3 | · | ·
36 | CCOC(=O)N1CCC(Nc2nc3ccc(Cl)cc3n3cnnc23)CC1 | 110.2 | · | · | ·
37 | CCOc1ccc(C(=O)Nc2ccc(-c3nc4ccccc4o3)cc2)cc1Br | 69.3* | 7.0 | 78.7 | 44420
38 | CCOc1ccc(C(=O)Nc2ccc3oc(-c4ccncc4)nc3c2)cc1Br | 108.3 | · | · | ·
39 | CCN1/C(=C(\C#N)c2nc(C#N)c(C#N)nc2N2CCOCC2)Nc2ccccc21 | 66.5* | -7.0 | 75.4 | 32831
40 | CN1CCN(c2nc(C#N)c(C#N)nc2C(C#N)=C2Nc3ccccc3N2)CC1 | 100.1 | -23.7 | · | ·
41 | Cc1cc(C)c2c(n1)SCCN2C(=O)Nc1cc(F)ccc1F | 102.8 | -5.8 | · | ·
42 | CCOC(=O)CC(=O)CSc1nc2c(c(-c3cccs3)c1C#N)CCC2 | 96.1 | · | 68.3 | 43008
43 | CCOC(=O)CC(=O)CSc1nc(-c2cccs2)cc(-c2cccs2)c1C#N | 115.4 | · | · | ·
44 | Cc1cccc(C)c1N=C1Oc2ccccc2N(C(=O)C(F)(F)F)C1(C)c1ccccn1 (centres undefined) | 98.3 | · | · | ·
45 | Cn1c(=O)c(-c2noc(CCC(=O)N3CCc4ccccc43)n2)nn(-c2ccccc2)c1=O | 111.4 | -33.0 | · | ·
46 | CCn1cc(/C=C2/C(=O)N(c3ccccc3)N=C2C)c2ccccc21 | · | -41.0 | · | ·
47 | CCn1cc(/C=C2/C(=O)N(c3ccccc3)c3ccccc32)c2ccccc21 | 53.0* | · | 68.8 | 38150
48 | Brc1ccc(-c2cc3c(SCc4ccccc4)nccn3n2)cc1 | 112.0 | -22.3 | · | ·
49 | COc1ccc(-c2ccc3cc(Cl)ccc3n2)c(OC)c1 | · | -24.5 | · | ·
50 | CCN(CC)CCCC(C)Nc1c2ccc(Cl)cc2nc2ccc(OC)cc12 (centres undefined) | 43.6* | -61.7 | 41.1* | 32214
51 | CN1CCCc2cc(CN)ccc21 | 69.5* | -0.5 | 53.6* | 4022*
52 | CCOc1ccc(CC(=O)NCC(c2ccc3c(c2)CCCN3C)N2CCCC2)cc1 (centres undefined) | 105.2 | -12.7 | · | ·
53 | CC(=O)Nc1cc(OC(C)=O)c2nonc2c1OC(C)=O | -28.4* | 100.8* | 16.2* | 3290*
54 | CC(=O)Nc1nonc1NC(C)=O | 107.1 | -8.7 | · | ·
55 | Cn1c(=O)n(CC(=O)O)c(=O)c2c1nc1n2CCN1c1ccc(F)cc1 | 85.0* | -0.4 | 64.4 | 39054
56 | Cn1c(=O)n(CC(=O)O)c(=O)c2c1nc1n2CCCN1c1ccc(F)cc1 | 92.5 | -7.8 | · | ·
57 | O=C1/C(=C/c2ccncc2)CC/C1=C\c1ccncc1 | · | -34.4 | · | ·
58 | CC1C/C(=C/c2ccncc2)C(=O)/C(=C/c2ccncc2)C1 (centres undefined) | 68.4* | · | 43.7* | 8734*
59 | Cc1cc2nc3[nH]c(=O)[nH]c(=O)c3nc2cc1C | · | -111.8 | · | ·
60 | O=c1[nH]c(=O)c2nc3ccc(Cl)cc3nc2[nH]1 | 102.8 | · | · | ·
